In article PMC7181047, “Flame-Made Calcium Phosphate Nanoparticles with High Drug Loading for Delivery of Biologics” (Molecules, 2020):

Experiments:
[1] = Loading of macromolecules on CaP nanoparticles by physisorption (BCA assay of supernatant); type: physicochemical; details: physisorption on flame-made CaP nanoparticles, PBS pH 7.4, room temperature, up to 24 h, particle and macromolecule concentration both 500 μg/mL
Method: Suspensions of protein and peptide-loaded CaP nanoparticles in PBS pH 7.4 (200 μL sample volume) were prepared by the addition of 100 μL of dispersed CaP nanoparticles in PBS pH 7.4 to an equal volume of protein/peptide solution of initial concentration ranging from 200 to 2000 μg/mL. The suspensions were placed on a roller mixer (Stuart SRT9D, Staffordshire, UK) for gentle mixing at 60 rpm at room temperature for 1, 2, 4, 6 and 24 h to investigate the effect of time on adsorption. The particles were separated via centrifugation at 10,000 rpm for 20 min (particle separation was confirmed by monitoring the luminescence of the CaP:Eu nanoparticles in the supernatant that was absent) and the supernatant containing the macromolecule content that has not been adsorbed was collected for quantification using a Pierce bicinchoninic acid (BCA) protein assay kit (ThermoFisher Scientific, Göteborg, Sweden) according to manufacturer’s instructions. Absorbance was measured at 562 nm using a microplate reader (SpectraMax Plus, Molecular Devices, San Jose, CA, USA) and the amount of macromolecules was calculated from a calibration curve. The amount of protein/peptide was calculated from the difference between the initial concentration and the concentration of the supernatant. Furthermore, the loaded particles were washed once with PBS and re-dispersed in PBS. […]

[2] = ζ-potential titration at different pH (isoelectric point); type: physicochemical; details: pure macromolecules, macromolecules concentration ~100 µg/ml
Method: Phase identification of the as-prepared powders was performed by X-Ray diffraction (XRD). XRD data were collected at ambient temperature with a MiniFlex X-ray diffractometer (Rigaku Europe, Neu-Isenburg, Germany) utilizing Cu Kα1 radiation (1.5406 Å) and operating at 40 kV and 15 mA. XRD patterns were recorded between 10 and 80° 2θ at a step size of 0.01°. Rietveld refinement was performed using the Rigaku software. The specific surface area (SSA) was determined by the nitrogen adsorption–desorption isotherms (Brunauer-Emmett-Teller, BET method,) in liquid nitrogen at 77 K using a Tristar II Plus (Micromeritics, Norcross, GA, USA) instrument after degassing for at least 3 h at 110 °C. […] Size distribution and surface charge of CaP and CaP-loaded nanoparticles were evaluated by dynamic light scattering (DLS) and ζ-potential analysis, respectively, in a Malvern Panalytical Zetasizer Ultra instrument (Malvern, UK) at 100 μg/mL particle concentration. […] Absorbance measurements at 225 nm were performed using an Analytik Jena Specord 210 Plus ultraviolet and visible (UV-vis) spectrophotometer (Jena, Germany). The absorbance at 225 nm (where maximum absorbance of CaP nanoparticles was observed) is monitored over time in a partially covered cuvette in order to monitor only the top suspension layer according to the method presented in Spyrogianni et al..

Substance: bovine serum albumin [BSA]
- Loading capacity (loading values reached) [1]: 350 mg/g of CaP
- isoelectric point [2]: ~ 5
